Experimental data as given in BindingDB's records for doi:10.1016/j.bmcl.2007.11.060 (Amgen, 2008).

Assay: Antagonist activity at CXCR3 assessed as ITAC-mediated migration of human PBMC in presence of 100% human plasma

IC50: 41 nM
SMILES: CCS(=O)(=O)CCN(C(=O)Cc1ccc(F)c(C(F)(F)F)c1)[C@H](C)c1nc2ccccn2c(=O)c1-c1ccc(C#N)cc1 [(R)-N-(1-(3-(4-cyanophenyl)-4-oxo-4H-pyrido[1,2-a]pyrimidin-2-yl)ethyl)-N-(2-(ethylsulfonyl)ethyl)-2-(4-fluoro-3-(trifluoromethyl)phenyl)acetamide]
